Data published in US8959984B2, “Proteome-wide quantification of small molecule binding to cellular target proteins” (priority 2007, dated 2015).

Amino acid sequences for entries named in this document (tags omitted). A change or cut given only in a name is not applied to a line headed by its entry.
UniProt Q96GD4, whole entry: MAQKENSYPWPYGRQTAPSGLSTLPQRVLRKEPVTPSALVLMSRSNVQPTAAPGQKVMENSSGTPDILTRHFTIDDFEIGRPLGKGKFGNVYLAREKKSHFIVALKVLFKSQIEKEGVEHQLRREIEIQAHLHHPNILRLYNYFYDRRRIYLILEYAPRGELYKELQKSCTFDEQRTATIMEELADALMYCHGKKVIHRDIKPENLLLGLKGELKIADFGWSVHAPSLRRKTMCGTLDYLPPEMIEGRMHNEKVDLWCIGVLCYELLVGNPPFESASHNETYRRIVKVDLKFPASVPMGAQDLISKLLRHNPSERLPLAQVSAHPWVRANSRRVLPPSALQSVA
UniProt P19784, whole entry: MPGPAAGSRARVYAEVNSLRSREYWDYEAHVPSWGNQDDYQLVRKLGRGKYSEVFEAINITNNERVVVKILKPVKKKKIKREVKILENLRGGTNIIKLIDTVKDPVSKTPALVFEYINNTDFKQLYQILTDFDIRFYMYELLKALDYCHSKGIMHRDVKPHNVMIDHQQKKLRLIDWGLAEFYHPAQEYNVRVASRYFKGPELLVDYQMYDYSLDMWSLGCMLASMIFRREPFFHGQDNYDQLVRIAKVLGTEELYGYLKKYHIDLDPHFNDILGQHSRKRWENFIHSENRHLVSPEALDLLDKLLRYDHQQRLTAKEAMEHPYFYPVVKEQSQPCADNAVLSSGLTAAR
UniProt Q9Y2U5: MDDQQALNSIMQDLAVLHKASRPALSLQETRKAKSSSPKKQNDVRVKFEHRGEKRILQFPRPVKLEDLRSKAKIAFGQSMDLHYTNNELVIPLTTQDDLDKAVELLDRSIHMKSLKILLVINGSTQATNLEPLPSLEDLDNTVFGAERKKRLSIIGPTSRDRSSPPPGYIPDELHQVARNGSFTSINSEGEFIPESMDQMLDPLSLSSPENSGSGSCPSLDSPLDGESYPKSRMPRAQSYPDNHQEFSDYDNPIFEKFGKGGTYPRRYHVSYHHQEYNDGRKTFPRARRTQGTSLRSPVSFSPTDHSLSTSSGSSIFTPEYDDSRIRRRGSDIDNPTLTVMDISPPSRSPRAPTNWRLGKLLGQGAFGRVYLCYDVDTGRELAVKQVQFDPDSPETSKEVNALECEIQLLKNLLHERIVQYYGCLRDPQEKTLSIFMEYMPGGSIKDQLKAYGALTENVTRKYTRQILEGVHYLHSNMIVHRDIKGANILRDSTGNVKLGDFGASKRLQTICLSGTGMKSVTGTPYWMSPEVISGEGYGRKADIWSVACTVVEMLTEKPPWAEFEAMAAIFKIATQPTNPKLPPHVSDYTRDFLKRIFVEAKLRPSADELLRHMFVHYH

Columns and labels:
Assay in all cases: Ki determination for immobilized VI16742: two consecutive incubations, control beads, ligand concentration and incubation time controls (Tables 7, 8)
Type in all cases: binding
[1] = biological target: cellular target proteins in HeLa cell lysate (Homo sapiens, UniProt Q9UEW8)
From the text: (§1) In an alternative implementation of the chemical proteomic approach according to the invention, the broadly-selective pyrido[2,3-d]pyrimidine-based kinase inhibitor VI16742 has been used for affinity capture (FIG. 10a). […] As shown by gene ontology analysis, the corresponding molecular functions were highly over-represented in proteins specifically retained by the inhibitor resin (FIG. 10b).
(§2) Cysteine carbamidomethylation was set as a fixed modification and N-acetyl protein and oxidized methionine were allowed as variable modifications. Spectra that were determined to result from heavy labeled peptides in the pre-search detection of SILAC partners by MaxQuant were searched with the fixed modifications Lys^4, Lys^8, Arg^6 and Arg^10, whereas MS/MS spectra for which no SILAC state could be assigned before database searching were searched with Lys^4, Lys^8, Arg^6 and Arg^10 as variable modifications. The mass tolerance was set to 5 ppm for monoisotopic precursor ions and to 0.5 Da for MS/MS peaks. The minimum peptide length was set to 6 amino acids and up to three missed cleavages and three isotopically labeled amino acids were permitted per peptide. The accepted false discovery rate (FDR) was 1% for the proteins and peptides. The cut-off for the posterior error probability (PEP) of peptides was set to 10%. Peptide PEPs were determined by generating Mascot score and peptide-length-dependent histograms for both the forward and the reverse hits and then deriving the probability of a false identification for a given top-scoring peptide using Bayes' theorem. The PEPs of peptides belonging to the same proteins were then multiplied. Each peptide sequence was considered only once with the lowest PEP determined in case of multiple sequencing of the same isotopic pattern or of peptide species with different SILAC, charge or modification states. Proteins were then sorted according to their products of their peptide PEPs and included until a FDR of 1% was reached according to the fraction of reverse proteins contained in the protein list. In addition to the FDR threshold applied for protein identification, proteins were only included when they were identified with at least two peptides (of which one was required to be unique for the protein) and quantified if at least on quantifiable SILAC pair was associated with them. Outliers were not removed as protein ratios were calculated as the median instead of the average of all peptide ratios. For peptides shared among different identified proteins, SILAC ratios were only considered for the ratio of the protein identified with the highest number of unique peptides. Protein ratios for the different in vitro association experiments were corrected for the initial SILAC pooling ratio, which was determined from the median of protein ratios in pooled SILAC-encoded cell extracts.

[2] = biological target: T1, cellular target proteins in HeLa cell lysate (Homo sapiens, UniProt P31947); conditions: Ki (VI16742), SFN IPI00013890
T1 sequence (P31947 1-248): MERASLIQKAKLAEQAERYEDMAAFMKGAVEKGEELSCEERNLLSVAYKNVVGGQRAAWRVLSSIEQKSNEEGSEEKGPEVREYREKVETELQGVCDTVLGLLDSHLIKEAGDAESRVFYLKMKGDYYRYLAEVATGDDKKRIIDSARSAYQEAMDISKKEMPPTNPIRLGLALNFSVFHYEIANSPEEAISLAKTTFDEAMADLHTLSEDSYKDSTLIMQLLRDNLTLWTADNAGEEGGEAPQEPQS
From the text: as §1, §2

[3] = biological target: cellular target proteins in HeLa cell lysate (Homo sapiens, UniProt Q96GD4); conditions: Ki (VI16742), AurB (AURKB) IPI00176642
From the text: as §1, §2

[4] = biological target: T2, cellular target proteins in HeLa cell lysate (Homo sapiens, UniProt Q9UHD2); conditions: Ki (VI16742), TBK1 IPI00293613
T2 sequence (Q9UHD2 1-729): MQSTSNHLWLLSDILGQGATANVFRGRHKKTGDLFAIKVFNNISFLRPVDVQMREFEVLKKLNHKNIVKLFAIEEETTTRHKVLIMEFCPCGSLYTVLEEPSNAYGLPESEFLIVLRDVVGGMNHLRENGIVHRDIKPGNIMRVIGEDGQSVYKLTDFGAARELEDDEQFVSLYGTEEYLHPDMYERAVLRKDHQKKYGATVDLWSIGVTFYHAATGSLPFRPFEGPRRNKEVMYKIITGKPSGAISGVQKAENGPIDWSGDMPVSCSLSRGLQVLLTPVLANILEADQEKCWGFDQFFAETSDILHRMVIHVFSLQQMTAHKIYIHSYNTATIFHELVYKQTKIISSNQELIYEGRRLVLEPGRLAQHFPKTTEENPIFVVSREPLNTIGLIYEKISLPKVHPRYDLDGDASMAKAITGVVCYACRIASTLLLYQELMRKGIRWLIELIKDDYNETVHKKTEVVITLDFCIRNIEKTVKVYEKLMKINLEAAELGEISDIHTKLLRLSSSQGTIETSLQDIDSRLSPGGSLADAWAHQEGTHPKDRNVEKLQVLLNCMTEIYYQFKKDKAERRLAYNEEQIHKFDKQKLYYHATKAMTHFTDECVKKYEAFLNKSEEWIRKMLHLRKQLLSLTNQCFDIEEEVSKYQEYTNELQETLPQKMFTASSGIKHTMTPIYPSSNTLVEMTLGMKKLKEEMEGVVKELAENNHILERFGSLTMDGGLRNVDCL
From the text: as §1, §2

[5] = biological target: cellular target proteins in HeLa cell lysate (Homo sapiens, UniProt P19784); conditions: Ki (VI16742), CK2a2 (CSNK2A2) IPI00020602
From the text: as §1, §2

[6] = biological target: T3, cellular target proteins in HeLa cell lysate (Homo sapiens, UniProt O15530); conditions: Ki (VI16742), PDK1 (PDPK1) IPI00002538
T3 sequence (O15530 1-556): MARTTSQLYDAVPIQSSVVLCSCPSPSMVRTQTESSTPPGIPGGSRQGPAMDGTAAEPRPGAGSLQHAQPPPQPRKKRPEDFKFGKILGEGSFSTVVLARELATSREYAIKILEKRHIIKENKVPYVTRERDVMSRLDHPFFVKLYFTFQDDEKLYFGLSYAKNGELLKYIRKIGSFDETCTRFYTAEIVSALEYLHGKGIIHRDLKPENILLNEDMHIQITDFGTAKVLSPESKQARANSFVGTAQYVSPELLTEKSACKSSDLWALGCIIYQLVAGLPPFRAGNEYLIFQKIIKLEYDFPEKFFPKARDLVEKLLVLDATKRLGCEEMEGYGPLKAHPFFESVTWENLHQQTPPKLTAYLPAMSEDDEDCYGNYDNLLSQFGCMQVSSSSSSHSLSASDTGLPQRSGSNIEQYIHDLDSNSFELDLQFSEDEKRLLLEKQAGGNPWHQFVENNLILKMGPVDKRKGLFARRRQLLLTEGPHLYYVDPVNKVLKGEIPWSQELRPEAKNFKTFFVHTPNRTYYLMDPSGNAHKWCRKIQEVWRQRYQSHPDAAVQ
From the text: as §1, §2

[7] = biological target: cellular target proteins in HeLa cell lysate (Homo sapiens, UniProt Q9Y2U5)
From the text: as §1, §2

## CC(C)n1c(=O)ccc2cnc(Nc3ccc(OCCN)cc3)nc21 [V16742]
[1]
  Ki: 42.2 µM
[2]
  Ki: 33.2 µM
[3]
  Ki: 8.59 µM
[4]
  Ki: 3.74 µM
[5]
  Ki: 6.59 µM
[6]
  Ki: 28.1 µM
[7]
  Ki: 42.2 µM
